Patent US6984410B2, “Process for antibiotic coating of elements with interconnecting microcavities, elements thus coated as well as their usage” (Heraeus Kulzer GmbH & Co. KG, priority 2001, dated 2006)

What was measured:
[1] = found by Jurado Soler et al.; cited from earlier work

Substance	Solubility in solvents such as methanol, ethanol and dimethyl sulfoxide [1]	Solubility in methanol, ethanol, dimethyl sulfoxide and N,N-dimethyl formamide
Gentamicin pentakis dodecyl sulfate	soluble	
lincosamine dodecyl sulfate		can be dissolved
lincosamine dodecyl sulfonate		can be dissolved
